Assay results taken from patent publication US10040791B2, “Isoxazole derivative as mutant isocitrate dehydrogenase 1 inhibitor” (Daiichi Sankyo Company, Limited, priority 2014, dated 2018).

Amino acid sequences for entries named in this document (tags omitted).
UniProt O75874, whole entry R132H: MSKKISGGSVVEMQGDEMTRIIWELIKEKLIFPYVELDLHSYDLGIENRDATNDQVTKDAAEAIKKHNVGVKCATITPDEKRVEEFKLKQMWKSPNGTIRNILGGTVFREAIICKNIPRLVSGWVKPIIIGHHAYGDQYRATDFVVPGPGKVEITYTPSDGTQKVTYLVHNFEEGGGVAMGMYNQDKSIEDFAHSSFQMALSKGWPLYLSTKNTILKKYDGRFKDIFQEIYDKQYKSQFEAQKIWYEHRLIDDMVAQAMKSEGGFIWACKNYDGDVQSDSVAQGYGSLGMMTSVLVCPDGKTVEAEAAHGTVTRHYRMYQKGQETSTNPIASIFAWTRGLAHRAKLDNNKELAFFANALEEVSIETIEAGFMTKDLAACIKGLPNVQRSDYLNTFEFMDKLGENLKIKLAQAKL

How the values were obtained:
[1] = system: IDH1R132H-expressing TF-1 cells (TF-1/IDH1R132H); assay: Inhibitory activity of 2-HG production using IDH1R132H-expressing TF-1 cells; assay type: cell-based, human; settings: Homo sapiens; 2-HG production, IDH1R132H-expressing TF-1 cells; read-out: Test Example 2 IC50
IDH1R132H = IDH1R132H (Homo sapiens (Human), UniProt O75874, R132H); assay: Inhibitory activity against IDH1R132H enzyme (NADPH detection, WST-8); assay type: biochemical; settings: 12 nM, residual NADPH detected with WST-8, read-out: Test Example 1 IDH1 R132H IC50
TF-1/IDH1R132H cells = assay: Inhibitory activity of TF-1/IDH1R132H cell growth (ATPlite); assay type: cell-based, human; settings: Homo sapiens, read-out: Test Example 4 IC50
[2] = system: AML mouse models harboring 4 genes including IDH1R132H; assay: 2-HG measurement in AML mouse models harboring 4 genes including IDH1R132H; assay type: in vivo; settings: AML mice, suspension 7.5, 15, 30 mg/mL in 0.5% methylcellulose at 10 mL/kg, three times at intervals of twice a day, 6, 16, 24 hours after final administration
[3] = system: IDH1/R132H mutant glioblastoma A1074-transplanted mouse model; assay: Antitumor activity against IDH1/R132H mutant glioblastoma A1074-transplanted mouse model; settings: NOG mice with subcutaneous A1074; mixed feed 0.3% compound for 4 weeks; FIG. 3 and 4

| SMILES | IC50 [1] | IC50 (IDH1R132H) | IC50 (TF-1/IDH1R132H cells) | 2-HG concentration in the plasma ([2]; FIG. 1A) | 2-HG level in the bone marrow cells ([2]; FIG. 1B) | tumor growth (tumor volume, tumor weight) [3] |
| --- | --- | --- | --- | --- | --- | --- |
| C#CC(=O)N1CCC(c2onc(-c3c(Cl)cc(Cl)cc3Cl)c2C(=O)n2ccc3c(/C=C/C(=O)O)cccc32)CC1 [Example 100] | 41 nM | 37 nM | 36 nM |  |  |  |
| C=CC(=O)N1CCC(c2onc(-c3ccc(Cl)cc3Cl)c2C(=O)n2cc(C)c3c(/C=C/C(=O)O)cccc32)CC1 [Example 106] | 143 nM | 64 nM | 192 nM |  |  |  |
| C=CC(=O)N1CCC(C)(c2onc(-c3c(Cl)cc(Cl)cc3Cl)c2C(=O)n2cc(C)c3c(/C=C/C(=O)O)cccc32)CC1 [Example 113] | 40 nM | 27 nM | 245 nM |  |  |  |
| C=CC(=O)N1CCC(c2onc(-c3c(C)cc(C)cc3C)c2C(=O)n2cc(C)c3c(/C=C/C(=O)O)cccc32)CC1 [Example 114] | 34 nM | 21 nM | 35 nM |  |  |  |
| C=CC(=O)N1CCC(c2onc(-c3cc(F)c(Cl)cc3Cl)c2C(=O)n2cc(C)c3c(/C=C/C(=O)O)cccc32)CC1 [Example 121] | 74 nM | 43 nM | > 900 nM |  |  |  |
| C=CC(=O)N1CCC(O)(c2onc(-c3c(Cl)cc(Cl)cc3Cl)c2C(=O)n2cc(C)c3c(/C=C/C(=O)O)cccc32)CC1 [Example 123] | 24 nM | 28 nM | > 900 nM |  |  |  |
| C=CC(=O)N1CC2C(C1)C2c1onc(-c2c(Cl)cc(Cl)cc2Cl)c1C(=O)n1cc(C)c2c(/C=C/C(=O)O)cccc21 (stereo not drawn) [Example 124] | 161 nM | 61 nM | > 900 nM |  |  |  |
| C=CC(=O)N1CCC(c2onc(-c3cc(F)c(Cl)cc3Cl)c2C(=O)n2cc3c4c(cccc42)/C(=C/C(=O)O)CC3)CC1 [Example 128] | 40 nM | 38 nM | > 900 nM |  |  |  |
| C=CC(=O)N1CCC(c2onc(-c3ccc(Cl)c(F)c3Cl)c2C(=O)n2cc3c4c(cccc42)/C(=C/C(=O)O)CC3)CC1 [Example 130, (2E)-[1-{[5-(1-Acryloylpiperidin-4-yl)-3-(2,4-dichloro-3-fluorophenyl)-1,2-oxazol-4-yl]carbonyl}-3,4-dihydrobenzo[cd]indol-5(1H)-ylidene]ethanoic acid] | 150 nM | 60 nM | > 900 nM |  |  |  |
| C=CC(=O)N1CCN(c2onc(-c3c(Cl)cccc3Cl)c2C(=O)n2ccc3c(/C=C/C(=O)O)cccc32)[C@H](C)C1 [Example 141, (2E)-3-[1-({5-[(2R)-4-Acryloyl-2-methylpiperazin-1-yl]-3-(2,6-dichlorophenyl)-1,2-oxazol-4-yl}carbonyl)-1H-indol-4-yl]prop-2-enoic acid] | > 2000 nM | 160 nM | > 900 nM |  |  |  |
| C=CC(=O)N1CCN(c2onc(-c3c(Cl)cc(Cl)cc3Cl)c2C(=O)n2ccc3c(/C=C/C(=O)O)cccc32)C2(CC2)C1 [Example 150, (2E)-3-(1-{[5-[7-Acryloyl-4,7-diazaspiro[2.5]oct-4-yl]-3-(2,4,6-trichlorophenyl)-1,2-oxazol-4-yl]carbonyl}-1H-indol-4-yl)prop-2-enoic acid] | 214 nM | 26 nM | > 900 nM |  |  |  |
| C=CC(=O)N1CC2(CC2)N(c2onc(-c3c(F)cccc3Cl)c2C(=O)n2ccc3c(/C=C/C(=O)O)cccc32)C[C@H]1CC [Example 160, (2E)-3-[1-({5-[(6R)7-Acryloyl-6-ethyl-4,7-diazaspiro[2.5]oct-4-yl]-3-(2-chloro-6-fluorophenyl)-1,2-oxazol-4-yl}carbonyl)-1H-indol-4-yl]prop-2-enoic acid] | > 400 nM | 26 nM | > 900 nM |  |  |  |
| Cn1cc(C(=O)c2c(-c3c(Cl)cc(Cl)cc3Cl)noc2C2(C)CC2)c2cccc(/C=C/C(=O)O)c21 [Example 165] | 127 nM | 10 nM | 211 nM |  |  |  |
| Cc1cn(C(=O)c2c(-c3c(Cl)cc(Cl)cc3Cl)noc2C(C)(C)F)c2cccc(/C=C/C(=O)O)c12 [Example 168, (2E)-3-(1-{[5-(2-Fluoropropan-2-yl)-3-(2,4,6-trichlorophenyl)-1,2-oxazol-4-yl]carbonyl}-3-methyl-1H-indol-4-yl)prop-2-enoic acid tert-butylamine salt] |  |  |  | remarkably decreased | remarkably decreased | inhibit tumor growth |

Where a name gives a salt, the structure may show the parent alone.
